Laboratory results as given in patent US11174252B2, “Heterocyclic compounds as kinase inhibitors” (priority 2018, dated 2021).

Chains of the proteins cited; added tags and fusions are not shown. Lines headed by an entry give the natural chain unless they say otherwise; changes in a name come on top. Residues count along the entry.
UniProt P07333, 20-972: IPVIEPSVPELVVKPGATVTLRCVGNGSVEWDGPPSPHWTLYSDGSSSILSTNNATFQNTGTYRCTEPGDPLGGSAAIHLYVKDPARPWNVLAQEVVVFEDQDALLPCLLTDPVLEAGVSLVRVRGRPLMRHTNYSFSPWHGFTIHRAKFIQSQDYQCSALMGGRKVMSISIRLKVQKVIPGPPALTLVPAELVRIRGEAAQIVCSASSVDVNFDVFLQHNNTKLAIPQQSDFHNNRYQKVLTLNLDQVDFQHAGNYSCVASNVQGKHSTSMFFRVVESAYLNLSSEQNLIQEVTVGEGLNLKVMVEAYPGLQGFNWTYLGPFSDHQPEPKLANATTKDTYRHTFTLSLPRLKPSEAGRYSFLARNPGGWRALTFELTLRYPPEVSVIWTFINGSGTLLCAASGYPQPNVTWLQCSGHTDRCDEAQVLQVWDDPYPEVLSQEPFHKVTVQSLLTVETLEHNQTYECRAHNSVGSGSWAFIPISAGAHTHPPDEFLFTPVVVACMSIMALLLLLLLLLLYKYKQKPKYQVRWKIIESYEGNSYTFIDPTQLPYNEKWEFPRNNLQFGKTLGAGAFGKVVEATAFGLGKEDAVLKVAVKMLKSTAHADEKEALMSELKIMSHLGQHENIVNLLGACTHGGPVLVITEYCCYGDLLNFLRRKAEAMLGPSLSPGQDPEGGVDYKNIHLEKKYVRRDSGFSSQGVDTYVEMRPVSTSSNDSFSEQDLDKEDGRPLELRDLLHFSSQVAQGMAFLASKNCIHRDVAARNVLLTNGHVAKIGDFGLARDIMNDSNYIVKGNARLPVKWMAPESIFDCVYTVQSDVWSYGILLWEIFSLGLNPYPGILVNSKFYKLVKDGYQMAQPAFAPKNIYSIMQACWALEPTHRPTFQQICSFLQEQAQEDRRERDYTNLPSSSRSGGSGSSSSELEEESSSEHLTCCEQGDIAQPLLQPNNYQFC
UniProt P11802: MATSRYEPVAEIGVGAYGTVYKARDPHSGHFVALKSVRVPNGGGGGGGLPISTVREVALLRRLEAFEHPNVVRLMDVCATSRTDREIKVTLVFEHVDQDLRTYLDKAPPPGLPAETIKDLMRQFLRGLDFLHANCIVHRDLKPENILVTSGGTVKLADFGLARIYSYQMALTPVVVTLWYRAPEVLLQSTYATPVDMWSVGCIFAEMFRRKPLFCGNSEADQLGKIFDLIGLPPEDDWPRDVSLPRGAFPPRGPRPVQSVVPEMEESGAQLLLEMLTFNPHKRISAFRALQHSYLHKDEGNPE

Tests used:
Type in all cases: biochemical
CDK6 = CDK6 (Homo sapiens (Human), UniProt Q00534); assay: biochemical; conditions: read-out: CDK6 IC50
FMS kinase = FMS kinase (Homo sapiens (Human), UniProt P07333); assay: LanthaScreen kinase assay (ATP, fluorescent-PolyGT substrate, TR-FRET)
CDK4 = CDK4 (Homo sapiens (Human), UniProt P11802); assay: In vitro kinase inhibition, luminescence (ADP-Glo) with retinoblastoma substrate

CC(C)N1CCOc2c(F)cc(-c3nc(Nc4ccc5c(c4)CC(N(C)C)C5)ncc3F)cc21 (stereo not shown) [Compound 37, N^5-(5-fluoro-4-(8-fluoro-4-isopropyl-3,4-dihydro-2H-benzo[b][1,4]oxazin-6-yl)pyrimidin-2-yl)-N^2,N^2-dimethyl-2,3-dihydro-1H-indene-2,5-diamine]
IC50 (CDK6): 3.5 nM | IC50 (FMS kinase): 18 nM | IC50 (CDK4): 6.5 nM

CC(C)N1CCOc2c(F)cc(-c3nc(Nc4ccc5c(c4)CNCC5)ncc3F)cc21 [Compound 16, N-(5-fluoro-4-(8-fluoro-4-isopropyl-3,4-dihydro-2H-benzo[b][1,4]oxazin-6-yl)pyrimidin-2-yl)-1,2,3,4-tetrahydroisoquinolin-7-amine]
IC50 (CDK6): 1 nM | IC50 (CDK4): 1 nM

CC(C)N1CCc2c(cccc2Nc2ncc(F)c(-c3cc(F)c4c(c3)N(C(C)C)CCO4)n2)C1 [Compound 20, N-(5-fluoro-4-(8-fluoro-4-isopropyl-3,4-dihydro-2H-benzo[b][1,4]oxazin-6-yl)pyrimidin-2-yl)-2-isopropyl-, 2,3,4-tetrahydroisoquinolin-5-amine]
IC50 (CDK6): 187 nM | IC50 (CDK4): 95 nM

CC(C)N1CCOc2c(F)cc(-c3nc(Nc4ccc(N5CCC(CO)CC5)cn4)ncc3F)cc21 [Compound 485, (1-(6-((5-fluoro-4-(8-fluoro-4-isopropyl-3,4-dihydro-2H-benzo[b][1,4]oxazin-6-yl)pyrimidin-2-yl)amino)pyridin-3-yl)piperidin-4-yl)methanol]
IC50 (CDK6): 22 nM | IC50 (CDK4): 7.5 nM

CC(C)N1CCOc2c(F)cc(-c3nc(Nc4ccc(N5CCC(N(C)C)CC5)cn4)ncc3F)cc21 [Compound 436, N-(5-(4-(dimethylamino)piperidin-1-yl)pyridin-2-yl)-5-fluoro-4-(8-fluoro-4-isopropyl-3,4-dihydro-2H-benzo[b][1,4]oxazin-6-yl)pyrimidin-2-amine]
IC50 (CDK6): 2 nM | IC50 (CDK4): 1.5 nM

CC(C)N1CCc2cc(Nc3ncc(F)c(-c4cc(F)c5c(c4)N(C(C)C)CCO5)n3)ccc2C1 [Compound 22, N-(5-fluoro-4-(8-fluoro-4-isopropyl-3,4-dihydro-2H-benzo[b][1,4]oxazin-6-yl)pyrimidin-2-yl)-2-isopropyl-1,2,3,4-tetrahydroisoquinolin-6-amine]
IC50 (CDK6): 2 nM | IC50 (CDK4): 2 nM

CC(C)N1CCOc2c(F)cc(-c3nc(Nc4ccc(N5CCNCC5)nc4)ncc3F)cc21 [Compound 23, 5-fluoro-4-(8-fluoro-4-isopropyl-3,4-dihydro-2H-benzo[b][1,4]oxazin-6-yl)-N-(6-(piperazin-1-yl)pyridin-3-yl)pyrimidin-2-amine]
IC50 (CDK6): 2 nM | IC50 (CDK4): 2 nM

CC(C)N1CCOc2c(F)cc(-c3nc(Nc4ccc(N5CCCNCC5)cn4)ncc3F)cc21 [Compound 477, N-(5-(1,4-diazepan-1-yl)pyridin-2-yl)-5-fluoro-4-(8-fluoro-4-isopropyl-3,4-dihydro-2H-benzo[b][1,4]oxazin-6-yl)pyrimidin-2-amine]
IC50 (CDK6): 4.5 nM | IC50 (CDK4): 3.5 nM

CC(C)N1CCOc2c(F)cc(-c3nc(Nc4cc(F)c(N5CCNCC5)cc4F)ncc3F)cc21 [Compound 31, N-(2,5-difluoro-4-(piperazin-1-yl)phenyl)-5-fluoro-4-(8-fluoro-4-isopropyl-3,4-dihydro-2H-benzo[b][1,4]oxazin-6-yl)pyrimidin-2-amine]
IC50 (CDK6): 32 nM | IC50 (CDK4): 2.5 nM

CC(C)N1CCOc2c(F)cc(-c3nc(Nc4cn(C5CCNCC5)cn4)ncc3F)cc21 [Compound 504, 5-fluoro-4-(8-fluoro-4-isopropyl-3,4-dihydro-2H-benzo[b][1,4]oxazin-6-yl)-N-(1-(piperidin-4-yl)-1H-imidazol-4-yl)pyrimidin-2-amine]
IC50 (CDK6): > 200 nM | IC50 (CDK4): 141 nM

CC(C)N1CCOc2c(F)cc(-c3nc(Nc4ccc(N5CCN(CCO)CC5)cn4)ncc3F)cc21 [Compound 490, 2-(4-(6-((5-fluoro-4-(8-fluoro-4-isopropyl-3,4-dihydro-2H-benzo[b][1,4]oxazin-6-yl)pyrimidin-2-yl)amino)pyridin-3-yl)piperazin-1-yl)ethan-1-ol]
IC50 (CDK6): 9.5 nM | IC50 (CDK4): 2 nM

CC(C)N1CCOc2c(F)cc(-c3nc(Nc4ccc(N5CCNCC5)c(F)c4F)ncc3F)cc21 [Compound 28, N-(2,3-difluoro-4-(piperazin-1-yl)phenyl)-5-fluoro-4-(8-fluoro-4-isopropyl-3,4-dihydro-2H-benzo[b][1,4]oxazin-6-yl)pyrimidin-2-amine]
IC50 (CDK6): 11 nM | IC50 (CDK4): 1 nM
